Values quoted from earlier work as cited in patent US20030013883A1, “Tropane analogs binding to monoamine transporters” (priority 2000, published 2003).

Chains of the proteins cited; added tags and fusions are not shown.
UniProt P31652, whole entry: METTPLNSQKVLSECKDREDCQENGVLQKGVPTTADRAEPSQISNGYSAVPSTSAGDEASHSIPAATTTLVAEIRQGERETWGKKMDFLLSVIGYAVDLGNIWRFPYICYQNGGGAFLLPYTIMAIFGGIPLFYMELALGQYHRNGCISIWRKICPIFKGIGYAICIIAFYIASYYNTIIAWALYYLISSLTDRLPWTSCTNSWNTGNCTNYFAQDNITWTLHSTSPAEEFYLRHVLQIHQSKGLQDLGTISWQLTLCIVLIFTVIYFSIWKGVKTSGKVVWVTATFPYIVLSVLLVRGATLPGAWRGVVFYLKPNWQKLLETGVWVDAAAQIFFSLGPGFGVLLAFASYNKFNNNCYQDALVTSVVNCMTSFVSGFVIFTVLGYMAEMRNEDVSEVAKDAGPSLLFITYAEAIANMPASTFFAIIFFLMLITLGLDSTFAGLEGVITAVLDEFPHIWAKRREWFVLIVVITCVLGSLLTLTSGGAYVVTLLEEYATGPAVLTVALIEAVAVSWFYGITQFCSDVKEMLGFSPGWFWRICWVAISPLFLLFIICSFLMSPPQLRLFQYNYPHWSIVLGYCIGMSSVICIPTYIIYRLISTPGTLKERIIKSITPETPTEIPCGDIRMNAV

Molecular target: serotonin transporter (SERT) (Rattus norvegicus, UniProt P31652)
Settings: read-out: Kd of radioligand at SERT; radioligand constant used in Cheng-Prusoff conversion; cited from earlier work

**Q.** Which Kd does the source give for [^3H]paroxetine here?
**A.** The Kd was 0.15 nM.
